Measured values: PubChem BioAssay AID453 (PCMD, 2006)
The entries are a selection whose mix differs from that of the whole data set. Activity calls are given as the source filed them. No stated cut-off is given here; in the data, active means inhibition above about 21%; inactive means the rest.

Each compound was assayed against Cathepsin B (Homo sapiens) (UniProt P07858) (assay: blockers of cathepsin B proteolysis – biochemical, fluorogenic substrate, primary screen (AID 453;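 further: 0% = enzyme with no compound and 100% = no enzyme blank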)). Conditions: purified cathepsin B, fluorescence, stronger effect = higher value,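 tested at 10 µM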.
In the case of `Cc1nn(-c2ccccc2)c2c1P(=O)(N1CCOCC1)N(C)C(c1ccccc1)=N2` (centres undefined), the inhibition is reported as inactive: 3.76%.
`O=P1(Nc2ncccn2)COc2ccccc2OC1` was tested, and the inhibition was inactive: 8.44%.
In the case of `Cc1ccc(OCC(=O)OC2CN3CCC2CC3)cc1` (centres undefined), the inhibition is reported as inactive: 5.14%.
With `O=P1(Nc2ccc(Br)cn2)COc2ccccc2OC1` the inhibition was inactive: 2.7%.
For `O=P1(Nc2ccccn2)COc2ccccc2OC1`, the inhibition was inactive: 4.81%.
In the case of `Clc1n[nH]nc1-c1nn[nH][15n]1`, the inhibition is reported as inactive: 2.33%.
With `Cc1cccc(OCC(=O)OC2CN3CCC2CC3)c1` (centres undefined) the inhibition was inactive: -0.32%.
`CCOP1(=S)c2c(C)nn(CCC#N)c2N=C(c2ccccc2F)N1C` (centres undefined) was tested, and the inhibition was inactive: 7.36%.
For `O=P(Nc1nccs1)(c1ccccc1)c1nc2ccccc2s1` (centres undefined), the inhibition was inactive: -3.8%.
`CCOP1(=S)c2c(C)nn(CCC#N)c2N=C(c2ccc(F)cc2)N1C` (centres undefined) was tested, and the inhibition was inactive: -3.73%.
`O=C(OC1CN2CCC1CC2)C12CC3CC(CC(C3)C1)C2` (centres undefined) was tested, and the inhibition was inactive: -1.76%.
In the case of `COP1(=S)c2c(C)nn(CCC#N)c2N=C(c2ccc(F)cc2)N1C` (centres undefined), the inhibition is reported as inactive: -0.23%.
`O=C(COc1ccccc1)OC1CN2CCC1CC2` (centres undefined) was tested, and the inhibition was inactive: 3.06%.
In the case of `CCc1nc2c(n1)c1c(non1O)c1c2no[n+]1[O-]`, the inhibition is reported as inactive: 3.76%.
With `COC(=O)c1cc2c(s1)N=C(c1ccccc1)N(C)P2(=O)N1CCOCC1` (centres undefined) the inhibition was inactive: 5.24%.
`O=P1(Nc2nc3ccc(Cl)cc3s2)COc2ccccc2O1` (centres undefined) was tested, and the inhibition was inactive: 1.24%.
With `O=P(Nc1nccs1)(c1ccccc1)c1ccccc1` the inhibition was inactive: 2.95%.
In the case of `c1nnnn1CCn1cnnn1`, the inhibition is reported as inactive: -3.5%.
In the case of `O=C(OC1CN2CCC1CC2)c1cccc(Cl)c1` (centres undefined), the inhibition is reported as inactive: 2.56%.
